{
  "source": "ChEMBL document CHEMBL1121862",
  "about": "“Synthesis of 3-hydroxycyclophosphamide and studies related to its possible role in the metabolism of cyclophosphamide” (1981)",
  "key": {"Mus musculus [1]": {"tested_on": "Mus musculus", "test": "Effect tested against L1210 leukemia cells in mice after 250-30 mg/kg ip administration"}, "Mus musculus [2]": {"tested_on": "Mus musculus", "test": "Maximum life span of mice after 150 mg/kg ip administration; Increases"}},
  "data": [
    {"smiles": "O=P1(N(CCCl)CCCl)OCCCN1O", "note": "(configuration not stated)", "values": [
      {"measurement": "Activity", "setting": "Mus musculus [1]", "result": "1e-05"},
      {"measurement": "ILS", "setting": "Mus musculus [2]", "result": 128, "unit": "%"}
    ]}
  ]
}
